# Binding of CDR-mutated scFvs to a peptide of the spike HR2 region

The target is the same throughout: PDVDLGDISGINAS, from the HR2 region of SARS-CoV-2 spike.

Each scFv is VH, three GGGGS repeats, VL, as in the parent Ab-14, and differs from it in the CDRs of the heavy chain only.
VH: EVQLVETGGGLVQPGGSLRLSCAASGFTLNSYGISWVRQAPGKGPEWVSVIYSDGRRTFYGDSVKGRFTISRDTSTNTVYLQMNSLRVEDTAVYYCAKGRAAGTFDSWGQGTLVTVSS
VL: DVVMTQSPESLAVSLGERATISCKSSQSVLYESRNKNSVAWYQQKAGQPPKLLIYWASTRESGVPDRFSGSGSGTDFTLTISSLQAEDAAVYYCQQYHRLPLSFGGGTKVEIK

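The parent was found by panning a naive human phage display library on the peptide. In library AAYL49, one, two or three CDR residues were substituted; doubles and triples were drawn at random. Affinity was read by AlphaSeq, a pooled yeast mating assay with surface-displayed partners. Mating (16 h, 30 °C) was followed by selection of diploids and sequencing of their barcodes. A regression on co-assayed BCL2-family reference pairs converts the normalised counts of each replicate to an apparent Kd. Each pool was mated in three replicate cultures.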

Positions count from residue 1 of the parent VH; Y52I puts I in place of Y. This list gathers variants with a substitution at Y52 (VH, numbered from residue 1). Numbers give log10(Kd / nM), so 0 is 1 nM and 3 is 1 µM. Smaller is tighter. Where no diploid with the target was found in that replicate, the entry reads "nd": below detection, most likely a poor binder, though not proof of it. In this assay the parent's reference entry averaged 0.65; its copy inside this library read 4.11 (one replicate of three). Three control strains display no target. For library AAYL49, 15% of the pairings with them gave a signal, with a median of 4.06 and one signal in twenty below 2.83, so weak values seen in few replicates may be background.

The variant Y52I+Y60T+S107C showed nd, 4.99, nd. The variant Y52N+F59A gave nd, nd, nd. The variant G26M+Y52Q showed 2.71, nd, nd. The variant F27R+Y52S+S53K showed nd, nd, nd. The variant Y52Q+K65E showed 5.46, nd, 4.95.

The variant Y52V gave nd, nd, nd. The variant Y52G+T104P showed nd, nd, nd. For G26N+Y52I+F59V, the assay gave 6.00, 3.90, nd. The variant I34L+Y52S+F105T showed nd, nd, nd. For Y32A+Y52D+R100A, the assay gave 6.70, nd, nd.

The variant Y52S+R57P+G99R showed nd, nd, nd. The variant F27W+Y52A+R57Q gave 3.70, nd, 4.14. The variant S31M+Y52Q+R56V showed nd, nd, nd. For I51Y+Y52Q+G99M, the assay gave nd, nd, nd. With Y52Q+G55W+D106G the result was nd, 2.84, nd.

The variant Y52M+G99L+G103L showed nd, 4.04, nd. The variant V50W+Y52K+Y60S showed nd, 5.27, nd. The variant L29R+Y52W+D106Q showed nd, 5.48, 6.02. With Y52G+G55N+S63A the result was nd, nd, 5.82. For Y52W+G55F+D62H, the assay gave nd, nd, nd.

The variant Y52C+G55L+T58E showed nd, 3.20, 5.71. With Y52W+S53H+R57E the result was nd, nd, nd. The variant I51N+Y52V+R57G showed nd, nd, nd. The variant S35G+Y52W+F105K showed 3.46, nd, nd. The variant G26D+Y52C+G61L gave nd, nd, nd.

For Y52C+F105M, the assay gave nd, nd, 5.56. For Y32C+Y52C, the assay gave nd, nd, nd. For Y52H+V64K+A102M, the assay gave nd, nd, nd. The variant Y52V+K65I+D106L showed nd, nd, nd. The variant Y52S+G99S+D106S gave 6.12, nd, 4.11.

The variant Y52M+T104C+S107D gave nd, nd, nd. The variant F27W+Y52A+Y60M gave nd, 3.34, nd. The variant Y52L+R56K+G99H showed nd, nd, nd. For Y52L+D62W+V64P, the assay gave nd, nd, nd. The variant S31T+Y52W+F105P gave nd, nd, nd.

For Y52C+Y60G+G99P, the assay gave nd, 4.98, 4.06.

Reference: Engelhart et al. 2022, doi:10.1038/s41597-022-01779-4. File: FLAb, binding data.